This passage reports inhibition results from article PMC5389348 (Scientific Reports, 2017).

Protein sequences, listed by entry. Tags and fused reporters are not part of them. Residues count along the entry.
UniProt Q08499, 1-584 isoform Q08499-4: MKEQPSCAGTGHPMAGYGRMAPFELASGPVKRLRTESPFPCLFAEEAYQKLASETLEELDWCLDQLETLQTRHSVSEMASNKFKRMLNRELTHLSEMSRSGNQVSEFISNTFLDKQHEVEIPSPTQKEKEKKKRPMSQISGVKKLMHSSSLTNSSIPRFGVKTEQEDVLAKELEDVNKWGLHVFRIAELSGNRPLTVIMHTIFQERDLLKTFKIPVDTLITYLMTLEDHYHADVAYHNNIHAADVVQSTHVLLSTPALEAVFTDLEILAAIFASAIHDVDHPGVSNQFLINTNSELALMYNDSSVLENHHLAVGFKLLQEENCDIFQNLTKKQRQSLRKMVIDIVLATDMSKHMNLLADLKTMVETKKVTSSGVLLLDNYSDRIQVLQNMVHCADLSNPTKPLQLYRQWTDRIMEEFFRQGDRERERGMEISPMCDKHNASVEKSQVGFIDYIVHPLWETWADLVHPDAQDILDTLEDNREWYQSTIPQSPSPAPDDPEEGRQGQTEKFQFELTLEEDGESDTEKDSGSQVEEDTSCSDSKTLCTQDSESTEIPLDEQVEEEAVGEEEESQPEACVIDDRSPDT
UniProt Q08499, 303-809: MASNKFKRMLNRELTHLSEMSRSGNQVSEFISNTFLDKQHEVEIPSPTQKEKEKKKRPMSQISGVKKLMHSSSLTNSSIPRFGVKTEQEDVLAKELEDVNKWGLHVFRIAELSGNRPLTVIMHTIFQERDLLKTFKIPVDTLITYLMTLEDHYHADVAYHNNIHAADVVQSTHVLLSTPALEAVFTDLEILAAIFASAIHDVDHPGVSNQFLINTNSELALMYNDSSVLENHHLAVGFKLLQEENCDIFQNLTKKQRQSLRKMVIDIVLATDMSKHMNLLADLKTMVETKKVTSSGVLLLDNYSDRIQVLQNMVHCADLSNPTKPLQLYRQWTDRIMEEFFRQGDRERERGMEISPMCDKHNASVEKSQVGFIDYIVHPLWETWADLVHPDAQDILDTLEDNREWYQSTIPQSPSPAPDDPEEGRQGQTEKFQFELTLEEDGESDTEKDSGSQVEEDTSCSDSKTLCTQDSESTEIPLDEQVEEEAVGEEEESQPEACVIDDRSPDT
UniProt Q08499, 1-745 isoform Q08499-6: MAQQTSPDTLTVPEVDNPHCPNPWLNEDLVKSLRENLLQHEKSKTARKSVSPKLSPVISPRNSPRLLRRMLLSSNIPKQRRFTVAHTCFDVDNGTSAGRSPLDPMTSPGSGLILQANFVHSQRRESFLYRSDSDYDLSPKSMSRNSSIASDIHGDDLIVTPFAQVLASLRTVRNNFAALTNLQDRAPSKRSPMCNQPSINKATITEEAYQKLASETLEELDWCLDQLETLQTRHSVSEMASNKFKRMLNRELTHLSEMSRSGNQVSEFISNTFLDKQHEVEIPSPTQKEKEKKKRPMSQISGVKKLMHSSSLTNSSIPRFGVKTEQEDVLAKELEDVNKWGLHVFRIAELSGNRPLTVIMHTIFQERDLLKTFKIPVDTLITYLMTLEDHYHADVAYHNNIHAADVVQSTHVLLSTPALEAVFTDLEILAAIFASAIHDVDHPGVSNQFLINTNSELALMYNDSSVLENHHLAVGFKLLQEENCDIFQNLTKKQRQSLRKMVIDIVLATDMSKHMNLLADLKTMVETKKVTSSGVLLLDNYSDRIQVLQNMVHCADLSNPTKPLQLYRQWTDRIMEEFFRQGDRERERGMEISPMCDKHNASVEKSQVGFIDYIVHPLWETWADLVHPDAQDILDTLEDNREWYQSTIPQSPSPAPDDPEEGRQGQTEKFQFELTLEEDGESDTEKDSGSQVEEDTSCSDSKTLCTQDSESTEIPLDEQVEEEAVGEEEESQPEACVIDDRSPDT
UniProt Q08499, 1-748 isoform Q08499-11: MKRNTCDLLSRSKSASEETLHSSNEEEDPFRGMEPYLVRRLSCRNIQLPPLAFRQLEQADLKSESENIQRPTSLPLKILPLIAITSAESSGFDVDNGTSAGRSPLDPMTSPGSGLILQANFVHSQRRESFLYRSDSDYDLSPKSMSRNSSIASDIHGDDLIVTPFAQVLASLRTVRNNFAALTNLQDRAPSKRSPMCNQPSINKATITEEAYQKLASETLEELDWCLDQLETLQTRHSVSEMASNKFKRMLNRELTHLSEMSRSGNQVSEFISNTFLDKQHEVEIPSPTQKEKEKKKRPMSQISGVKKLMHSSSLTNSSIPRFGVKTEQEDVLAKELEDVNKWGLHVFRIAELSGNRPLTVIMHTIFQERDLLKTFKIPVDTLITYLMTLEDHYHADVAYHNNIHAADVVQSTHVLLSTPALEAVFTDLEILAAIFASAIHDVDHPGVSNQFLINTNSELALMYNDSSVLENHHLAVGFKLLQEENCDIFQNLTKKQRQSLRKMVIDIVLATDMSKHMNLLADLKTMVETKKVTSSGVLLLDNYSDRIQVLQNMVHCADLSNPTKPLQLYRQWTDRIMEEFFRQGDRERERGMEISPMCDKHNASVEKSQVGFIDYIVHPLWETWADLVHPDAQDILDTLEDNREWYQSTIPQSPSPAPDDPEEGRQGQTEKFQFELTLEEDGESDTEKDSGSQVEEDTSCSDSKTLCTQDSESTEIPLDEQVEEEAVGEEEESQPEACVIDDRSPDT

Some targets named below: PDE4D1 (Homo sapiens, UniProt Q08499); PDE4D2 (Homo sapiens, UniProt Q08499); PDE4D5 (Homo sapiens, UniProt Q08499); PDE4D7 (Homo sapiens, UniProt Q08499).
Holding throughout (assay): biochemical
Holding throughout (settings): read-out: GEBR-32a % inhibition

Molecules are shown by their SMILES.

As for `OC(CN1CCOCC1)Cn1ccc(-c2ccc(OC(F)F)c(OC3CCCC3)c2)n1` (stereo not shown) [GEBR-32a], the inhibition at 10 µM on PDE4D1 came out at 82.2%; on PDE4D2 it was 87.8%; at PDE4D5, 67.3%; at PDE4D7, 90.7%.

In general, inhibition refers to the share of the control response that was lost under treatment.
